Experimental data taken from patent US7579432B2, “Cyclic peptides as G-protein-coupled receptor antagonists” (Promics Pty Limited, priority 2001, dated 2009).

Tests used:
[1] = biological target: T1, C5a receptor on human polymorphonuclear leukocytes (C5a-stimulated human PMNs) (Homo sapiens, UniProt P21730); experiment: Myeloperoxidase release assay for antagonist activity; assay type: cell-based; settings: for IC50: myeloperoxidase release from human PMNs, C5a 100 nM; for antagonist potency compared with compound 1: structure-activity discussion
T1 construct: Cells were isolated as previously described (Sanderson et al, 1995) and incubated with cytochalasin B; endogenous in cells; host or cells: isolated human polymorphonuclear leukocytes (PMNs)
T1 sequence (P21730 1-350): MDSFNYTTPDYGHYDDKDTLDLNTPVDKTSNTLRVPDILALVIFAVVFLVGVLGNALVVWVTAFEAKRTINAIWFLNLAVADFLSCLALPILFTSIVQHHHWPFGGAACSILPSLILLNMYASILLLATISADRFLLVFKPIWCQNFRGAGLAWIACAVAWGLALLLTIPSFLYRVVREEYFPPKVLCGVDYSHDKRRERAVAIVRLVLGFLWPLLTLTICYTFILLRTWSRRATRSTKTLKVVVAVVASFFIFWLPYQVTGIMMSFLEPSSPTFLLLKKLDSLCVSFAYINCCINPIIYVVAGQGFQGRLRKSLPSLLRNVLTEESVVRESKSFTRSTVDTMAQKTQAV

[2] = biological target: T2, C5a receptor on human polymorphonuclear leukocytes (Homo sapiens, UniProt P21730); experiment: biochemical; settings: Binding IC50, human PMNs, 4° C., 60 min
T2 sequence (P21730 1-350): T1 sequence (P21730 1-350)

[3] = biological target: T2, C5a receptor on human polymorphonuclear leukocytes; settings: structure-activity discussion

SMILES	IC50 [1]	IC50 [2]	antagonist potency compared with compound 1 [1]	receptor binding affinity compared with compound 1 [3]
CC(=O)N[C@@H](Cc1ccccc1)C(=O)N[C@H]1CCCNC(=O)[C@H](CCCNC(=N)N)NC(=O)[C@H](CC2CCCCC2)NC(=O)[C@@H](CC2CCCCC2)NC(=O)[C@@H]2CCCN2C1=O [Compound 50, AcF[OP-dCha-Cha-R]] (Ac-F[Orn]P[dCha][Cha]R; lactam 2-C (inferred))	4500 nM	11900 nM	–	–
CC(=O)N[C@@H](Cc1ccccc1)C(=O)N[C@H]1CCCNC(=O)[C@H](CCCNC(=N)N)NC(=O)[C@H](CC(C)C)NC(=O)[C@@H](CC2CCCCC2)NC(=O)[C@@H]2CCCN2C1=O [Compound 51, AcF[OP-dCha-LR]] (Ac-F[Orn]P[dCha]LR; lactam 2-C)	3000 nM	18900 nM	–	–
CC(=O)N[C@@H](Cc1ccccc1)C(=O)N[C@H]1CCCNC(=O)[C@H](CCCNC(=N)N)NC(=O)[C@H](Cc2cccc3ccccc23)NC(=O)[C@@H](CC2CCCCC2)NC(=O)[C@@H]2CCCN2C1=O [Compound 52, AcF[OP-dCha-1Nal-R]] (Ac-F[Orn]P[dCha][1Nal]R; lactam 2-C)	46.6 nM	710 nM	–	–
CC(=O)N[C@@H](Cc1ccccc1)C(=O)N[C@H]1CCCNC(=O)[C@H](CCCNC(=N)N)NC(=O)[C@@H]2Cc3ccccc3CN2C(=O)[C@@H](CC2CCCCC2)NC(=O)[C@@H]2CCCN2C1=O [Compound 56, AcF[OPdCha-Tic-R]] (Ac-F[Orn]P[dCha][Tic]R; lactam 2-C)	10900 nM	3730 nM	–	–
CC(=O)N[C@@H](Cc1ccccc1)C(=O)N[C@H]1CCCNC(=O)[C@H](CCCNC(=N)N)NC(=O)[C@H](Cc2csc3ccccc23)NC(=O)[C@@H](CC2CCCCC2)NC(=O)[C@@H]2CCCN2C1=O [Compound 58, AcF[OP-dCha-Bta-R]] (Ac-F[Orn]P[dCha][Bta]R; lactam 2-C)	172 nM	280 nM	–	–
CC(=O)N[C@@H](Cc1ccccc1)C(=O)N[C@H]1CCCNC(=O)[C@H](CCCNC(=N)N)NC(=O)[C@H](Cc2ccccc2)NC(=O)[C@@H](CC2CCCCC2)NC(=O)[C@@H]2CCCN2C1=O [Compound 60, AcF-[OPdChaFR]] (Ac-F[Orn]P[dCha]FR; lactam 2-C (inferred))	32 nM	250 nM	little change in antagonist potency	–
CC(=O)N[C@@H](Cc1ccccc1)C(=O)N[C@H]1CCCNC(=O)[C@H](CCCNC(=N)N)NC(=O)[C@H](Cc2c[nH]c3ccccc23)NC(=O)[C@@H](Cc2ccccc2)N(C)C(=O)[C@@H]2CCCN2C1=O [Compound 65]	–	–	tends to reduce	tends to reduce

Bridge positions count the residues as written; N and C are the ends. Square brackets hold non-standard residues; d marks the D form. Peptide text beside a SMILES is read from it. 1Nal = N[C@@H](Cc1cccc2ccccc12)C(=O)O; Bta = N[C@@H](Cc1csc2ccccc12)C(=O)O; Tic = O=C(O)[C@@H]1Cc2ccccc2CN1; Cha = N[C@@H](CC1CCCCC1)C(=O)O; dCha = N[C@H](CC1CCCCC1)C(=O)O; Orn = NCCC[C@H](N)C(=O)O
